Data on 1 molecule can be found in ChEMBL document CHEMBL1139344, “Antagonists of the human A(2A) adenosine receptor. 4. Design, synthesis, and preclinical evaluation of 7-aryltriazolo[4,5-d]pyrimidines” (J Med Chem, 2009).

Amino acid sequences for entries named in this document (tags omitted).
UniProt P0DMS8, whole entry: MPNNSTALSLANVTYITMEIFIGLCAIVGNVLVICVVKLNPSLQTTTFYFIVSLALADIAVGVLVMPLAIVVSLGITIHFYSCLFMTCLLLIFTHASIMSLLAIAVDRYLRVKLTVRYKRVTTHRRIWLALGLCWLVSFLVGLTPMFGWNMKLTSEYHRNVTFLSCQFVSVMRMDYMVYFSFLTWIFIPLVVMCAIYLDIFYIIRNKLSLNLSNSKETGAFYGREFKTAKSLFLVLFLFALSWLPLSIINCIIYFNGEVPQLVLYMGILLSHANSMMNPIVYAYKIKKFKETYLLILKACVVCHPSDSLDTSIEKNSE
UniProt P30542, whole entry: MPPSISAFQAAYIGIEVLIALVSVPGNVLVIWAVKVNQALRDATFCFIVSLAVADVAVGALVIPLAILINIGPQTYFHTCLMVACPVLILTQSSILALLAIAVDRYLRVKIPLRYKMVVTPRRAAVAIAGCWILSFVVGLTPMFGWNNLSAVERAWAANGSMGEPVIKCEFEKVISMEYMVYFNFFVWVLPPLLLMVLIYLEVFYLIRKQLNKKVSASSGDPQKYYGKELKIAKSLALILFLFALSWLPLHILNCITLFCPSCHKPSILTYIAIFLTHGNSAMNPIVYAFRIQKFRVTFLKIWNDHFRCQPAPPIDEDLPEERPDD

The target in one assay is Adenosine receptor A2a (Homo sapiens, UniProt P29274). Put plainly: Antagonist activity at human adenosine A2A receptor expressed in CHO-K1 cells treated for 15 mins by calcium mobilization-based FLIPR assay. It counts as functional, cell-based. The note with it: read-out: pA2 (converted).
The target in assay [1] is T1, Adenosine receptor A2b (Homo sapiens, UniProt P29275).
T1 sequence (P29275 whole entry): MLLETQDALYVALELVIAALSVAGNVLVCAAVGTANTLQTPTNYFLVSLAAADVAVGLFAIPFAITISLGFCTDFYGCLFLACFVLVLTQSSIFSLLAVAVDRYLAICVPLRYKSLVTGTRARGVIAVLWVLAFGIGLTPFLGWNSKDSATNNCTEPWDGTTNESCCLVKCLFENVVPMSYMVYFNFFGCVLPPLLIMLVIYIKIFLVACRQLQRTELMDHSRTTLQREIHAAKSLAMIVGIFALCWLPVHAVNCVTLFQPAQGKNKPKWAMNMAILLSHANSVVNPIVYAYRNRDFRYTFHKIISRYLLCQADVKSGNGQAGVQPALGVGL
Put plainly: Antagonist activity at human adenosine A2B receptor expressed in CHO-K1 cells by calcium mobilization-based FLIPR assay. It counts as functional, cell-based. The following applies: read-out: pA2 (converted).

For assay [2], the target named is T2, Adenosine receptor A3 (Homo sapiens, UniProt P0DMS8). Description: Displacement of radioligand from human recombinant adenosine A3 receptor at 21 degC after 60 mins by cell-based microplate scintillation counting.
The target of the next assay is Adenosine receptor A1 (Homo sapiens, UniProt P30542). Description: Antagonist activity at human adenosine A1 receptor expressed in CHO-K1 cells by calcium mobilization-based FLIPR assay. It counts as functional, cell-based. The note with it: read-out: pA2 (converted).
For assay [3], the target named is T1, Adenosine receptor A2b. Put plainly: Displacement of radioligand from human recombinant adenosine A2B receptor at 21 degC after 60 mins by cell-based microplate scintillation counting.
The target in assay [4] is T2, Adenosine receptor A3. Description: Antagonist activity at human adenosine A3 receptor expressed in CHO-K1 cells by calcium mobilization-based FLIPR assay. It counts as functional, cell-based. The following applies: read-out: pA2 (converted).

Molecules are shown by their SMILES.

In the case of `Cc1cc(Cn2nnc3c(-c4ccco4)nc(N)nc32)ccc1N` [VIPADENANT], the Kb was 0.631 nM on Adenosine receptor A2a, 31.6 nM on Adenosine receptor A2b [1], 100 nM at Adenosine receptor A1 and 1580 nM at Adenosine receptor A3 [4]. The inhibition constant Ki on Adenosine receptor A3 [2] is 1010 nM; on Adenosine receptor A2b [3] it was 63 nM.
